Tests used:
Factor IX = test: Coagulation factor activity after treatment and FORANE extraction: Factor IX; assay type: biochemical; conditions: 2% TNBP or 1% TNBP/1% detergent, 4 hours, then 20% FORANE; compared to untreated
Factor X = test: Coagulation factor activity after treatment and FORANE extraction: Factor X; assay type: biochemical; conditions: 2% TNBP or 1% TNBP/1% detergent, 4 hours, then 20% FORANE; compared to untreated
Factor VII = test: Coagulation factor activity after treatment and FORANE extraction: Factor VII; assay type: biochemical; conditions: 2% TNBP or 1% TNBP/1% detergent, 4 hours, then 20% FORANE; compared to untreated
Factor II = test: Coagulation factor activity after treatment and FORANE extraction: Factor II; assay type: biochemical; conditions: 2% TNBP or 1% TNBP/1% detergent, 4 hours, then 20% FORANE; compared to untreated
anti-thrombin III = test: Activity after treatment and FORANE extraction: anti-thrombin III; conditions: 2% TNBP, 4 hours, then 20% FORANE; compared to untreated
Factor VIII = test: Coagulation factor activity after treatment and FORANE extraction: Factor VIII; assay type: biochemical; conditions: 2% TNBP or 1% TNBP/1% detergent, 4 hours, then 20% FORANE; compared to untreated

CCCCOP(=O)(OCCCC)OCCCC
Percent Recovery Factor IX (Factor IX): 89%
Percent Recovery Factor X (Factor X): 98%
Percent Recovery Factor VII (Factor VII): 95%
Percent Recovery Factor II (Factor II): 105%
Percent Recovery anti-thrombin III (anti-thrombin III): 100%
Percent Recovery Factor VIII (Factor VIII): 81%
